Results: PMC6271384, “Synthesis, Cytotoxicity and Mechanistic Evaluation of 4-Oxoquinoline-3-carboxamide Derivatives: Finding New Potential Anticancer Drugs” (Molecules, 2014)

Sequences of proteins named here, by UniProt entry; tags and fusion partners are left off. A change or cut given only in a name is not applied to a line headed by its entry.
UniProt P11388: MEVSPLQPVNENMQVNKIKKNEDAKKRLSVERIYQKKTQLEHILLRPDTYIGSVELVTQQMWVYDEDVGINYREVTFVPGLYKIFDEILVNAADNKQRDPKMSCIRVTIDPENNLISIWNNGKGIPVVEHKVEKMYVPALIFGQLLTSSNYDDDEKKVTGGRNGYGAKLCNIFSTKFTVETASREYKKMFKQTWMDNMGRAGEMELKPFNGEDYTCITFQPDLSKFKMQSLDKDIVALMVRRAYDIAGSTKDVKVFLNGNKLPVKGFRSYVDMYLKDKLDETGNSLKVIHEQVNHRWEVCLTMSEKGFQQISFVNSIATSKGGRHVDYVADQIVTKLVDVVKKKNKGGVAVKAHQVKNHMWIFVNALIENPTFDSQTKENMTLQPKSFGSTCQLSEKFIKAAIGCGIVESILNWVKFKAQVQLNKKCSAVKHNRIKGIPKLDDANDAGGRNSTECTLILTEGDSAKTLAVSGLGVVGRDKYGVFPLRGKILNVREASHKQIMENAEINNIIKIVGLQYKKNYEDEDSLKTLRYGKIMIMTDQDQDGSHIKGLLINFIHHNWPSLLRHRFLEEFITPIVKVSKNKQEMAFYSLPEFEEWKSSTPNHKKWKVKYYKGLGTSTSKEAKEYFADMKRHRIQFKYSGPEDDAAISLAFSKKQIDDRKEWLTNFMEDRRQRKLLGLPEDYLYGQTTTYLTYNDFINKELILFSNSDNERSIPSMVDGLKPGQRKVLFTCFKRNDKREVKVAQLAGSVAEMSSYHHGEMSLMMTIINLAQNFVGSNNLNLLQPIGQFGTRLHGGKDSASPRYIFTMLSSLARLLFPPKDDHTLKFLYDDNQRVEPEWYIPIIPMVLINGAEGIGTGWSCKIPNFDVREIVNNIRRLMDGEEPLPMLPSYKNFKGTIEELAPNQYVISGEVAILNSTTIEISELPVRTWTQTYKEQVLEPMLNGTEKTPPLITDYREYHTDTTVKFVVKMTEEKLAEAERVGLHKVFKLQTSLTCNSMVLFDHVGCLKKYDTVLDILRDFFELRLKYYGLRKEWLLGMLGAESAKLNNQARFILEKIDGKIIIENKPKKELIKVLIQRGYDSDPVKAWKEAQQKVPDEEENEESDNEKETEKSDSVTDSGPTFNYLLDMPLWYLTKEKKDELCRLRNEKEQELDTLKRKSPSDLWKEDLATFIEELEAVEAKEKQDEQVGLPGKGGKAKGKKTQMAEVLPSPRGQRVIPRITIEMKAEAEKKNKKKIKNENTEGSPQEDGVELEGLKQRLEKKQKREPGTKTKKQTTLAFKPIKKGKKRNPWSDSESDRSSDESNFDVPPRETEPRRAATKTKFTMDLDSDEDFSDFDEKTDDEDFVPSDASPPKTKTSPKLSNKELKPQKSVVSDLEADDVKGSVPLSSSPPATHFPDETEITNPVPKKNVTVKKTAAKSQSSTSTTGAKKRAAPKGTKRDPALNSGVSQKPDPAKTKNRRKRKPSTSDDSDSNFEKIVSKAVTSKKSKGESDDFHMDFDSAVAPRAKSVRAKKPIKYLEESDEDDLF

Molecular target: T1, Human topoisomerase IIα (TopoIIα) (Homo sapiens, UniProt P11388)
T1 construct: purchased TopoGEN, Inc. (Columbus, OH, USA)
Test: DNA relaxation assay (Topoisomerase II Drug Screening Kit)
Format: biochemical
Settings: 100 µM compound, 10 U enzyme, 37 °C, 30 min, agarose gel
Experimental: Human topoisomerase IIα (TopoIIα) was obtained from TopoGEN, Inc. (Columbus, OH, USA). Proteinase K from Tritirachium album was obtained from Sigma-Aldrich, Inc. (St. Louis, MO, USA) and was dissolved in DNase free water. A TAE gel electrophoresis buffer was used in this assay.
The inhibitory effects of the derivatives on human TopoIIα were measured using a Eukaryotic Topoisomerase II Drug Screening Kit (TopoGEN, Inc.). All derivatives were dissolved in DMSO immediately prior to testing.
The substances were tested at a fixed concentration of 0.1 mM. This assay concentration was chosen based on the effective concentration of the VP-16 (etoposide) standard (0.1 mM), as recommended by the kit manufacturer (TopoGen). […] There was no interference in enzyme function with concentrations from 0%–5% DMSO. Supercoiled plasmid DNA (pRYG, 200 ng) was incubated with human TopoIIα (10 U) at 37 °C for 30 min in relaxation buffers in the absence or presence of derivatives (final volume is 20 μL). The order of reagent addition was buffer, test derivative, Topo IIα and finally DNA.
The assay samples were analyzed by electrophoresis on a 1% agarose gel without EtdBr (25 V, 18 h, room temperature) in TAE buffer, followed by staining in 0.5 μg/mL of EtdBr to allow for observation of the DNA bands under UV light.

## COc1cc([C@@H]2c3cc4c(cc3[C@@H](O[C@@H]3O[C@@H]5CO[C@@H](C)O[C@H]5[C@H](O)[C@H]3O)[C@H]3COC(=O)[C@H]23)OCO4)cc(OC)c1O [VP-16, etoposide, reference compound]
  inhibition of supercoiled DNA (pRYG) relaxation by topoisomerase II: only the SC band is observed, which indicates topoisomerase inhibition
